Compound activity: PubChem, several laboratories
NR1D1 modulator – modulates human Rev-erb alpha binding to DNA; P20393; Rev-erbα–FITC-DNA binding, fluorescence polarization, 90 min; activity, % at 10 µM; hit rate 0.79% among 370,000; AID 1259318;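 active means activity above about 14%, limit read from the data; passing the limit was not always enough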;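 further: 0% = DMSO wells with 35 nM protein and 100% = DMSO wells with 750 nM protein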
GSIS activator – GLuc luminescence reporter in INS-1E cells, primary screen for activators of glucose-dependent secretion of insulin | INS-1E GLuc reporter insulin secretion, 2-3 h | activation, % at 16.6 µM | hit rate 0.61% among 370,000 | AID 743287;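 active means lowest replicate activation of at least 40%, so every replicate reaches that level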;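 further: 0% = median of neutral control wells and 100% = median of IBMX positive control wells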
UUG fidelity – alters start codon recognition fidelity in yeast; S. cerevisiae UUG-firefly luciferase reporter, luminescence/redox ratio; activity score, % at 18.7 µM; actives 0.13% (n = 350,000); AID 602363;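 active = replicate mean at a twofold rise or more, about +100% in these data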;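 also: firefly luciferase made from a UUG start codon reports start codon fidelity; reporter light over untreated wells divided by growth signal over untreated wells; some hits fall short of that in this replicate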
SMARCA2 activ – SMARCA2 function activation, primary screen | activation, % at 9.1 µM | hit rate 1% among 370,000 | MG213 cells, MMTV-luciferase reporter, dexamethasone, overnight; in the data active means activation above about 7.8%;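 further: 0% = vehicle wells and 100% = reference activator wells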
PDI inh – inhibitors of human protein disulfide isomerase | PDI insulin aggregation turbidity, A650, 90 min | inhibition, % at 10 µM | hit rate 0.052% among 350,000 | AID 588391;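 active means mean inhibition across replicates of 30% or more, whatever share of single replicates reach that level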
ERp5 inh – blocks human ERp5 reductase activity on insulin; Q15084; ERp5 insulin aggregation, absorbance 650 nm, 90 min; inhibition, % at 9.99 µM; hit rate 0.05% among 350,000; AID 651711;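 active means mean replicate inhibition above about 25%, with every replicate also reaching it, limit read from the data, passing the limit was not always enough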
SMARCA2 act conf – confirmation of SMARCA2 (BRM) function activators; shares compounds with SMARCA2 activ; MG213 cells, MMTV-luciferase with dexamethasone, luminescence, overnight; MG213 cells expressing E1A, Rb sequestered; DMSO wells 0%, reference activator 100%; activation, % at 9.1 µM; hit rate 30% among 3,500; AID 652260;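 active means activation above its plate's cutoff, the mean activation of tested wells plus 3 SD, cut at about 7.9% in these data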
VP16 Luc act – GAL4-VP16 reporter activation counter-screen. shares compounds with SMARCA2 activ. HEK293 GAL4-VP16 pG5luc reporter, luciferase luminescence; scaled: DMSO wells 0%, SAHA wells 100%. activation, % at 9.1 µM. hit rate 41% among 3,500;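 active means activation above the solvent-only control well mean plus 3 SD, averaged across control plates, cut at about 5.2% in these data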
The depositor's hits bear a star; ! = repeats disagree. Shown are actives, neighbours in structure and some others; about 2.1% of the full set was active somewhere.

For COc1ccc2c(c1OC)C(=O)N1c3ccccc3COC21 (stereo not drawn) the results were NR1D1 modulator -3, UUG fidelity -6, SMARCA2 activ 8.2*, PDI inh 9, SMARCA2 act conf 8.9* and VP16 Luc act 9.3*.
For C[C@H](CO)N1C[C@H](C)[C@@H](CN(C)S(=O)(=O)c2ccc(F)cc2)Oc2c(NC(=O)c3cnccn3)cccc2C1=O the results were GSIS activator 21 and ERp5 inh -1.
Screening CCCC(=O)Nc1ccc2c(c1)C(=O)N(C)C[C@H](OC)[C@H](C)CN(C(=O)c1ccccc1F)[C@H](C)CO2 returned GSIS activator -9, UUG fidelity -3 and ERp5 inh -4.
For CCn1cnc2sc(C(=O)Oc3cccc(C)c3)c(C)c2c1=O the results were NR1D1 modulator -4, GSIS activator 11, UUG fidelity -18, SMARCA2 activ 11*, PDI inh 13, ERp5 inh 2, SMARCA2 act conf 7 and VP16 Luc act 4.
COc1ccc2cc(C(=O)N3CCc4ccccc43)[nH]c2c1 was read as NR1D1 modulator 16, GSIS activator -3, UUG fidelity 3, SMARCA2 activ 2, PDI inh 2 and ERp5 inh 1.
O=C(c1cc2cc(F)ccc2[nH]1)N1CCc2ccccc21 was read as NR1D1 modulator 12, GSIS activator 7, UUG fidelity -23, SMARCA2 activ 10*, PDI inh -2, ERp5 inh 0, SMARCA2 act conf 8 and VP16 Luc act 9.3*.
`O=C(COc1ccc(F)cc1Br)N1CCc2ccccc21` gave NR1D1 modulator 0, UUG fidelity -2, SMARCA2 activ 12*, PDI inh -1, SMARCA2 act conf 6 and VP16 Luc act 14*.
Screening COc1ccc(C(=O)Nc2ccc3c(c2)OC[C@@H](C)N(Cc2cocn2)C[C@@H](C)[C@@H](OC)CN(C)C3=O)cc1 returned GSIS activator 9, UUG fidelity 41 and ERp5 inh 8.
Cc1c(C(=O)OCC(=O)N2CCC(C)CC2)oc2ccccc12 was read as NR1D1 modulator 5, GSIS activator -36, UUG fidelity 12, SMARCA2 activ 9.2*, PDI inh 3, ERp5 inh 1, SMARCA2 act conf -1 and VP16 Luc act 4.
COc1ccc2oc(C(=O)OCC(=O)N3CCC(C)CC3)c(C)c2c1 was read as NR1D1 modulator -6, GSIS activator -14, UUG fidelity 8, SMARCA2 activ -2, PDI inh 2 and ERp5 inh -12.
For CCC(=O)Nc1ccc2c(c1)OC[C@@H](C)N(C(=O)C1CC1)C[C@H](C)[C@H](OC)CN(C)C2=O the results were GSIS activator 2 and ERp5 inh 0.
Screening Cc1ccc(S(=O)(=O)Nc2cccc3c2O[C@@H](CN(C)Cc2ccc4c(c2)OCO4)[C@H](C)CN([C@H](C)CO)C3=O)cc1 returned GSIS activator 2, UUG fidelity 0 and ERp5 inh 6.
Screening C/C(=N\N=c1/sc2ccccc2n1C)c1ccccn1 returned NR1D1 modulator -13, GSIS activator 4, UUG fidelity 4, SMARCA2 activ 8.1*, PDI inh -1, ERp5 inh 4, SMARCA2 act conf 4 and VP16 Luc act 7.5*.
Screening O=C(Nc1ccc2ccccc2c1)c1cccc(F)c1 returned NR1D1 modulator 0, GSIS activator 4, UUG fidelity -5, SMARCA2 activ 9.4*, PDI inh 8, ERp5 inh -1, SMARCA2 act conf 3 and VP16 Luc act 11*.
`Cc1ccc2cc(NC(=O)c3ccccc3)ccc2n1` gave NR1D1 modulator -4, GSIS activator 2, UUG fidelity -31, SMARCA2 activ 9.2*, PDI inh -2, ERp5 inh 1, SMARCA2 act conf 7 and VP16 Luc act 13*.
CCN1CCN(c2ccc(NC(=O)c3ccco3)cc2Cl)CC1 was read as NR1D1 modulator -2, GSIS activator 16, UUG fidelity -7, SMARCA2 activ 3, PDI inh 0 and ERp5 inh -1.
For CCN1CCN(c2ccc(NC(=O)c3cccc(F)c3)cc2Cl)CC1 the results were NR1D1 modulator -3, GSIS activator -17, UUG fidelity -9, SMARCA2 activ 14*, PDI inh 5, ERp5 inh 7, SMARCA2 act conf 9.1* and VP16 Luc act 5.8*.
Cc1ccc2cc(NC(=O)c3cccc(F)c3)ccc2n1 was read as NR1D1 modulator -1, SMARCA2 activ 8.1*, PDI inh -6, ERp5 inh 0, SMARCA2 act conf 19* and VP16 Luc act 5.
O=C(Nc1ccc2[nH]ncc2c1)c1cccc(F)c1 was read as NR1D1 modulator -1, GSIS activator 5, UUG fidelity -8, SMARCA2 activ 4, PDI inh 2 and ERp5 inh -4.
CN1CCN(C(=O)C[C@H]2C[C@H]3c4cc(NC(=O)NC5CCCC5)ccc4O[C@H]3[C@@H](CO)O2)CC1 was read as GSIS activator -4, UUG fidelity -7 and ERp5 inh 9.
Screening CC[C@H](C)C(=O)O[C@H]1CCC=C2C=C[C@H](C)[C@H](CC[C@@H]3C[C@@H](O)CC(=O)O3)[C@H]21 returned NR1D1 modulator 0, UUG fidelity 0, SMARCA2 activ 11*, PDI inh 7, ERp5 inh 1, SMARCA2 act conf 3 and VP16 Luc act 5.
CC[C@H](C)C(=O)O[C@H]1C[C@@H](C)C=C2C=C[C@H](C)[C@H](CC[C@@H]3C[C@@H](O)CC(=O)O3)[C@H]21 was read as NR1D1 modulator 2, GSIS activator -7, UUG fidelity -3, SMARCA2 activ 8.2*!, PDI inh 2, ERp5 inh 0, SMARCA2 act conf 6 and VP16 Luc act 0.
For CCC(C)C(=O)OC1CCC=C2C=CC(C)C(CCC3CC(O)CC(=O)O3)C21 (stereo not drawn) the results were NR1D1 modulator -3, SMARCA2 activ 2, PDI inh -1 and ERp5 inh 4.
`Cc1ccc(NC(=O)c2cnccn2)c(Br)c1` gave NR1D1 modulator 5, UUG fidelity -3, SMARCA2 activ 10*, PDI inh -4, ERp5 inh 5, SMARCA2 act conf 8 and VP16 Luc act 6.2*.
Screening CN(CC(=O)Nc1ccccc1Cl)C(=O)COC(=O)c1ccc(Cl)nc1 returned NR1D1 modulator -1, GSIS activator -1, UUG fidelity -18, SMARCA2 activ -3, PDI inh -7 and ERp5 inh -6.
